How the values were obtained:
[1] = biological target: T1, ferroportin (Homo sapiens, UniProt Q9NP59); experiment: T47D internalization assay in presence of mouse serum albumin; assay type: cell-based; set-up: a human breast carcinoma adherent cell line which endogenously expresses ferroportin; host or cells: T47D; conditions: Table 1D; T47D cells, 0.5% mouse serum albumin, 1 hr incubation; read-out: IC50: T47D MSA
T1 sequence (Q9NP59 1-571): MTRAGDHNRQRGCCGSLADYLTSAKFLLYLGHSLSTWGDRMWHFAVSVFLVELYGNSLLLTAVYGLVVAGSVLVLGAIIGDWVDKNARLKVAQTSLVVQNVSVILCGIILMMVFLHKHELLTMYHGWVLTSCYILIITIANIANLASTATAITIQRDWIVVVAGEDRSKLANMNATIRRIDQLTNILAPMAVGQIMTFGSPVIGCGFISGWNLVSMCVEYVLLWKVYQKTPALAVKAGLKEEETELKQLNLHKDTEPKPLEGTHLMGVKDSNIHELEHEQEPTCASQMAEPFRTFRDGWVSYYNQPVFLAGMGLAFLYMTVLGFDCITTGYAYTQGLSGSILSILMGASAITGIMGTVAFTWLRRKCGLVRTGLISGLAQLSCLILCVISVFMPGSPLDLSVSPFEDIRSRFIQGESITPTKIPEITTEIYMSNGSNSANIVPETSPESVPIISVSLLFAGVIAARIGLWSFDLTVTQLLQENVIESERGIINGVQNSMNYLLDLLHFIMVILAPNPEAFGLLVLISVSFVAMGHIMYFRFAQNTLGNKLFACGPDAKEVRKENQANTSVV
Method in brief: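 Flow cytometry median fluorescence of live singlet cells gave IC50 via 4-parameter fit. Peptides in 0.5% MSA (30 min preincubation, 10 points from ~5 μM) were applied to T47D cells for 1 h, followed by a 2 h exposure to AF647 detection peptide at a fixed 200 nM.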

[2] = biological target: T1, ferroportin; experiment: FPN internalization assay (FPN activity assay), loss of ferroportin-GFP fluorescence; assay type: cell-based; conditions: Table 1D; HEK293 cells stably expressing ferroportin-GFP, compound at least 18 hours; read-out: IC50: FPN

Compound | IC50 [1] | IC50 [2]
CC(C)CC(=O)N[C@H]1CSSC[C@@H](C(=O)N[C@@H](CCCCNC(=O)CCOCCOCC[N+](C)(C)C)C(=O)NCCCCc2ccccc2)NC(=O)[C@H](C(c2ccccc2)c2ccccc2)NC(=O)[C@H](Cc2c[nH]cn2)NC(=O)[C@H]([C@@H](C)O)NC1=O [compound 160] | > 500 nM | 100 to 500 nM
CC(C)CC(=O)N[C@@H](CCC(=O)O)C(=O)N[C@H](C(=O)N[C@@H](Cc1c[nH]cn1)C(=O)N[C@H](C(=O)N1CCC[C@H]1C(=O)N[C@@H](CCCCNC(=O)CCOCCOCC[N+](C)(C)C)C(=O)NCCCCc1ccccc1)C(c1ccccc1)c1ccccc1)[C@@H](C)O [compound 161] | 100 to 500 nM | 30 to 100 nM
CC(C)CC(=O)N[C@@H](CCC(=O)O)C(=O)N[C@H]1CSSC[C@@H](C(=O)N[C@@H](CCCC[N+](C)(C)C)C(=O)N[C@@H](C(N)=O)C(c2ccccc2)c2ccccc2)NC(=O)[C@H](C(C)(C)C)NC(=O)[C@@H]2CCCN2C(=O)[C@H](C(c2ccccc2)c2ccccc2)NC(=O)[C@H](Cc2c[nH]cn2)NC1=O [compound 163] | > 500 nM | 1 to 30 nM
CCCCCCCCCCCCCCCC(=O)N[C@@H](CN)C(=O)NCCOCCOCC(=O)NCCOCCOCC(=O)NCCCC[C@H](NC(=O)[C@@H]1CCSSCC[C@H](NC(=O)[C@H](CCC(=O)O)NC(=O)CC(C)C)C(=O)N[C@@H](Cc2c[nH]cn2)C(=O)N[C@@H](C(c2ccccc2)c2ccccc2)C(=O)N1)C(=O)NCCCCc1ccccc1 [compound 166] | 10 to 100 nM | 100 to 500 nM
CC(C)CC(=O)N[C@@H](CCC(=O)O)C(=O)N1C[C@@H]2C[C@H]1C(=O)N[C@@H](Cc1c[nH]cn1)C(=O)N[C@@H](C(c1ccccc1)c1ccccc1)C(=O)N1C[C@@H](C[C@H]1C(=O)N[C@@H](CCCC[N+](C)(C)C)C(=O)NCCCCc1ccccc1)SS2 [compound 167] | 100 to 500 nM | 30 to 100 nM
CCCCCCCCCCCCCCCC(=O)N[C@@H](CCCC[N+](C)(C)C)C(=O)NCCOCCOCC(=O)NCCOCCOCC(=O)NCCCC[C@H](NC(=O)[C@@H]1C[C@@H]2CN1C(=O)[C@H](C(c1ccccc1)c1ccccc1)NC(=O)[C@H](Cc1c[nH]cn1)NC(=O)[C@@H]1C[C@@H](CN1C(=O)[C@H](CCC(=O)O)NC(=O)CC(C)C)SS2)C(=O)NCCCCc1ccccc1 [compound 168] | 0.1 to 10 nM | 1 to 30 nM
CCCCCCCCCCCCCCCC(=O)NCC[N+](C)(C)CC(=O)NCCOCCOCC(=O)NCCOCCOCC(=O)NCCCC[C@H](NC(=O)[C@@H]1C[C@@H]2CN1C(=O)[C@H](C(c1ccccc1)c1ccccc1)NC(=O)[C@H](Cc1c[nH]cn1)NC(=O)[C@@H]1C[C@@H](CN1C(=O)[C@H](CCC(=O)O)NC(=O)CC(C)C)SS2)C(=O)NCCCCc1ccccc1 [compound 169] | 0.1 to 10 nM | 1 to 30 nM
COC(=O)CCC(CCCC(C)C)C(=O)N1C[C@@H]2C[C@H]1C(=O)N[C@@H](Cc1c[nH]cn1)C(=O)N[C@@H](C(c1ccccc1)c1ccccc1)C(=O)N1C[C@@H](C[C@H]1C(=O)N(C)[C@@H](CCCCN)C(=O)NCCCCc1ccccc1)SS2 (stereo partly shown) [compound 170] | > 500 nM | > 500 nM
COC(=O)CCC(CCCC(C)C)C(=O)N1C[C@@H]2C[C@H]1C(=O)N[C@@H](Cc1c[nH]cn1)C(=O)N[C@@H](C(c1ccccc1)c1ccccc1)C(=O)N1C[C@@H](C[C@H]1C(=O)N(C)[C@@H](CCCC[N+](C)(C)C)C(=O)NCCCCc1ccccc1)SS2 (stereo partly shown) [compound 171] | > 500 nM | > 500 nM
CC(C)CC(=O)N[C@@H](CCC(=O)O)C(=O)N[C@H]1CSSC[C@@H](C(=O)N[C@@H](CCCCNC(=O)[C@H](CN)NC(=O)CCCc2ccc(I)cc2)C(=O)NCCCCc2ccccc2)NC(=O)[C@H](C(c2ccccc2)c2ccccc2)NC(=O)[C@H](Cc2c[nH]cn2)NC1=O [compound 172] | 100 to 500 nM | 30 to 100 nM
CCCCCCCCCCCCCCCC(=O)N[C@@H](CN)C(=O)NCCOCCOCC(=O)NCCOCCOCC(=O)NCCCC[C@H](NC(=O)[C@H]1NC(=O)[C@H](C(c2ccccc2)c2ccccc2)NC(=O)[C@H](Cc2c[nH]cn2)NC(=O)[C@@H](NC(=O)[C@H](CCC(=O)O)NC(=O)CC(C)C)C(C)(C)SSC1(C)C)C(=O)NCCCCc1ccccc1 [compound 174] | 100 to 500 nM | 30 to 100 nM
CCCCCCCCCCCCCCCC(=O)N[C@@H](CN)C(=O)NCCOCCOCC(=O)NCCOCCOCC(=O)NCCCC[C@H](NC(=O)[C@@H]1CSSC[C@H](NC(=O)C(CCCC(C)C)CCC(=O)OC)C(=O)N[C@@H](Cc2c[nH]cn2)C(=O)N[C@@H](C(c2ccccc2)c2ccccc2)C(=O)N1)C(=O)NCCCCc1ccccc1 (stereo partly shown) [compound 175] | 100 to 500 nM | > 500 nM
COC(=O)CCC(CCCC(C)C)C(=O)N[C@H]1CSSC[C@@H](C(=O)N(C)[C@@H](CCCCN)C(=O)NCCCCc2ccccc2)NC(=O)[C@H](C(c2ccccc2)c2ccccc2)NC(=O)[C@H](Cc2c[nH]cn2)NC1=O (stereo partly shown) [compound 176] | > 500 nM | > 500 nM
COC(=O)CCC(CCCC(C)C)C(=O)N[C@H]1CSSC[C@@H](C(=O)N[C@@H](CCCC[N+](C)(C)C)C(=O)NCCCCc2ccccc2)NC(=O)[C@H](C(c2ccccc2)c2ccccc2)NC(=O)[C@H](Cc2c[nH]cn2)NC1=O (stereo partly shown) [compound 177] | > 500 nM | > 500 nM
COC(=O)CCC(CCCC(C)C)C(=O)N[C@H](C(=O)N[C@@H](Cc1c[nH]cn1)C(=O)N[C@H](C(=O)N1CCC[C@H]1C(=O)N(C)[C@@H](CCCCN)C(=O)NCCCCc1ccccc1)C(c1ccccc1)c1ccccc1)[C@@H](C)O (stereo partly shown) [compound 178] | > 500 nM | > 500 nM
CCCCCCCCCCCCCCCC(=O)N[C@@H](CN)C(=O)NCCOCCOCC(=O)NCCOCCOCC(=O)NCCCC[C@H](NC(=O)[C@@H]1C[C@@H]2CN1C(=O)[C@H](C(c1ccccc1)c1ccccc1)NC(=O)[C@H](Cc1c[nH]cn1)NC(=O)[C@@H](NC(=O)[C@H](CCC(=O)O)NC(=O)CC(C)C)CCSS2)C(=O)NCCCCc1ccccc1 [compound 179] | 100 to 500 nM | 1 to 30 nM
CCCCCCCCCCCCCCCC(=O)NCC[N+](C)(C)CC(=O)NCCOCCOCC(=O)NCCOCCOCC(=O)NCCCC[C@H](NC(=O)[C@@H]1CCCN1C(=O)[C@@H](NC(=O)[C@H](Cc1c[nH]cn1)NC(=O)[C@@H](NC(=O)[C@H](CCC(=O)O)NC(=O)CC(C)C)[C@@H](C)O)C(c1ccccc1)c1ccccc1)C(=O)N[C@@H](Cc1ccccc1)C(=O)NCCCCC [compound 182] | 0.1 to 10 nM | 1 to 30 nM
CCCCCCCCCCCCCCCC(=O)NCC[N+](C)(C)CC(=O)NCCOCCOCCOCCOCCOCCOCCOCCOCCOCCOCCOCCOCCC(=O)NCCCC[C@H](NC(=O)[C@@H]1CCCN1C(=O)[C@@H](NC(=O)[C@H](Cc1c[nH]cn1)NC(=O)[C@@H](NC(=O)[C@H](CCC(=O)O)NC(=O)CC(C)C)[C@@H](C)O)C(c1ccccc1)c1ccccc1)C(=O)N[C@@H](Cc1ccccc1)C(=O)NCCCCC [compound 183] | 0.1 to 10 nM | 1 to 30 nM
CCCCCCCCCCCCCCCC(=O)NCC[N+](C)(C)CC(=O)NCCOCCOCCOCCOCCC(=O)NCCCC[C@H](NC(=O)[C@@H]1CCCN1C(=O)[C@@H](NC(=O)[C@H](Cc1c[nH]cn1)NC(=O)[C@@H](NC(=O)[C@H](CCC(=O)O)NC(=O)CC(C)C)[C@@H](C)O)C(c1ccccc1)c1ccccc1)C(=O)N[C@@H](Cc1ccccc1)C(=O)NCCCCC [compound 184] | 0.1 to 10 nM | 1 to 30 nM
CCCCCCCCCCCCCCCC(=O)NCC[N+](C)(C)CC(=O)NCCCC[C@H](NC(=O)[C@@H]1CCCN1C(=O)[C@@H](NC(=O)[C@H](Cc1c[nH]cn1)NC(=O)[C@@H](NC(=O)[C@H](CCC(=O)O)NC(=O)CC(C)C)[C@@H](C)O)C(c1ccccc1)c1ccccc1)C(=O)N[C@@H](Cc1ccccc1)C(=O)NCCCCC [compound 185] | 10 to 100 nM | 1 to 30 nM
CCCCCCCCCCCCCCCC(=O)NCCOCCOCCOCCOCCOCCOCCOCCOCCOCCOCCOCCOCCC(=O)NCCCC[C@H](NC(=O)[C@@H]1CCCN1C(=O)[C@@H](NC(=O)[C@H](Cc1c[nH]cn1)NC(=O)[C@@H](NC(=O)[C@H](CCC(=O)O)NC(=O)CC(C)C)[C@@H](C)O)C(c1ccccc1)c1ccccc1)C(=O)N[C@@H](Cc1ccccc1)C(=O)NCCCCC [compound 186] | 0.1 to 10 nM | 1 to 30 nM
CCCCCCCCCCCCCCCC(=O)NCC[N+](C)(C)CC(=O)NCCOCCOCC(=O)NCCOCCOCC(=O)NCCCC[C@H](NC(=O)[C@@H]1C[C@@H]2CN1C(=O)[C@H](C(c1ccccc1)c1ccccc1)NC(=O)[C@H](Cc1c[nH]cn1)NC(=O)[C@H]([C@@H](C)O)NC(=O)[C@@H](NC(=O)CC(C)C)CCCC(=O)N2)C(=O)NCCCCc1ccccc1 [compound 189] | 10 to 100 nM | 1 to 30 nM
CCCCCCCCCCCCCCCC(=O)NCC[N+](C)(C)CC(=O)NCCOCCOCC(=O)NCCOCCOCC(=O)NCCCC[C@H](NC(=O)[C@@H]1C[C@@H]2CN1C(=O)[C@H](C(c1ccccc1)c1ccccc1)NC(=O)[C@H](Cc1c[nH]cn1)NC(=O)[C@@H](NC(=O)[C@H](CCC(=O)O)NC(=O)CC(C)C)CCC(=O)N2)C(=O)NCCCCc1ccccc1 [compound 190] | 100 to 500 nM | 30 to 100 nM
